The target of test [1] is T1, HTH-type quorum-sensing regulator RhlR (Pseudomonas aeruginosa (strain ATCC 15692 / PAO1 / 1C / PRS 101 / LMG12228)) (UniProt P54292).
T1 sequence (whole entry): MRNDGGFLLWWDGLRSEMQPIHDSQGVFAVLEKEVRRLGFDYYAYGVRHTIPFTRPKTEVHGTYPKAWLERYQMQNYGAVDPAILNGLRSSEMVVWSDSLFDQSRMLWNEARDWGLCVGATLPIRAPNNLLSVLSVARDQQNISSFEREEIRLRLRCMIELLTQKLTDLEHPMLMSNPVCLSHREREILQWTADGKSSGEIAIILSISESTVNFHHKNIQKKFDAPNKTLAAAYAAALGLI
The test can be described thus: Agonist activity at Pseudomonas aeruginosa RhlR expressed in Escherichia coli DH5alpha assessed as relative protein activity at 100 uM incubated for 1.5 hrs by luminescence reporter gene assay relative to control. The method in brief: (§1)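 E. coli DH5α sdiA mutant carrying pJN105R (RhlR) and pSC11 (rhlA::lacZ). Grown 2 h at 37 °C in LB with gentamicin and ampicillin to OD595 0.3, then given compound alone plus 0.4% arabinose, 37 °C for 1.5 h. β-galactosidase luminescence divided by OD595 gives relative RhlR activity. P values versus DMSO control.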
(Reporter assays use an easily measured gene product as a stand-in for the process of interest.)

The target in test [2] is T1, HTH-type quorum-sensing regulator RhlR (Pseudomonas aeruginosa (strain ATCC 15692 / PAO1 / 1C / PRS 101 / LMG12228)). In words: Agonist activity at Pseudomonas aeruginosa RhlR expressed in Escherichia coli DH5alpha assessed as relative protein activity at 1000 uM incubated for 1.5 hrs by luminescence reporter gene assay relative to control. The method in brief:
as §1

Test [3] shares this target. In words: Antagonist activity at Pseudomonas aeruginosa RhlR expressed in Escherichia coli DH5alpha assessed as relative protein activity at 100 uM incubated for 1.5 hrs in presence of N-butyryl-L-homoserine lactone by luminescence reporter gene assay relative to control. Also noted: scale not given: the % may be the effect or the level left. The method, boiled down:
(§2)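 E. coli DH5α sdiA mutant carrying RhlR and rhlA::lacZ plasmids, at OD595 0.3 in LB. Compound given with BHL (10 µM per footnote) and 0.4% arabinose, 37 °C for 1.5 h. Relative RhlR activity is β-galactosidase luminescence over OD595, compared against DMSO control.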

The target is the same in test [4]. In words: Modulation of RhlR in Pseudomonas aeruginosa assessed as reduction in biofilm formation at 10 uM incubated for 48 hrs under dynamic condition by measuring biofilm volume by 4',6-diamidino-2-phenylindole staining based confocal laser scanning microscopy. The method, boiled down:
(§3)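 Drip-flow reactor with glass slides, fed continuously at 0.3 mL/min with AB medium containing 5% P. aeruginosa (OD595 1.0) plus compound, 37 °C for 48 h. Unattached cells removed with PBS. Biofilm stained with DAPI for 10 min, imaged by CLSM Z-stacks (ex 350/em 470 nm, 20× objective). Volume and thickness obtained with Comstat2.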

Test [5] has the same target. The test can be described thus: Modulation of RhlR in Pseudomonas aeruginosa assessed as reduction in biofilm formation at 10 uM incubated for 48 hrs under dynamic condition by measuring biofilm thickness by 4',6-diamidino-2-phenylindole staining based confocal laser scanning microscopy. The method in brief:
as §3

For test [6] the target is unchanged. The test can be described thus: Antagonist activity at Pseudomonas aeruginosa RhlR expressed in Escherichia coli DH5alpha assessed as relative protein activity at 10 uM incubated for 1.5 hrs in presence of N-butyryl-L-homoserine lactone by luminescence reporter gene assay relative to control. Further details: scale not given: the % may be the effect or the level left. The method in brief:
as §2

With `CCCCCC(O)CC(=O)CCc1ccc(O)c(OC)c1` (configuration not stated), the Activity in test [1] was determined as 4%.

Take `CCCCC[C@H](O)CC(=O)CCc1ccc(O)c(OC)c1` [GINGEROL]: the Activity in test [2] turned out to be 5%; in test [1], 3%; in test [3], 75%; in test [4] it was 18.7 um3/um2; in test [5], 20.4 µm.

Consider `CCCC(=O)C#Cc1ccc(F)c(F)c1`, for which the Activity in test [2] stood at 4%; in test [1] it was 4%; in test [3], 12%; in test [6] it was 31%; in test [4], 11.3 um3/um2; in test [5], 19.5 µm.

The values above are taken from ChEMBL document CHEMBL4619802, “Discovery and Characterization of Pure RhlR Antagonists against Pseudomonas aeruginosa Infections” (J Med Chem, 2020).
